Test results from patent EP0555208B1, “METAL OXIMATE POLYETHYLENE GLYCOLS CHEMICAL DECONTAMINANT SYSTEM” (dated 1992).

Key:
[1] = Screening: decontaminants vs CW agents, agent destruction by gas chromatography; settings: tetraglyme
[2] = Post-contamination decontamination of guinea pigs, effect of added water; settings: 1.25 molal KDAMO in MPEG550 with over 20 w/w % water of the base medium
[3] = GD, preparation method I, ratio salt:agent 1:1, salt conc 0.025 M
[4] = GD, preparation method I, ratio salt:agent 2:1, salt conc 0.05 M
[5] = GD, preparation method II (in situ), ratio salt:agent 1:1, salt conc 0.025 M
[6] = GD, preparation method II (in situ), ratio salt:agent 2:1, salt conc 0.05 M
[7] = HD, preparation method I, ratio salt:agent 1:1, salt conc 0.025 M
[8] = HD, preparation method I, ratio salt:agent 2:1, salt conc 0.05 M
[9] = HD, preparation method II (in situ), ratio salt:agent 1:1, salt conc 0.025 M
[10] = HD, preparation method II (in situ), ratio salt:agent 2:1, salt conc 0.05 M
[11] = VX, preparation method I, ratio salt:agent 1:1, salt conc 0.025 M
[12] = VX, preparation method I, ratio salt:agent 2:1, salt conc 0.05 M
[13] = VX, preparation method II (in situ), ratio salt:agent 1:1, salt conc 0.025 M
[14] = VX, preparation method II (in situ), ratio salt:agent 2:1, salt conc 0.05 M

potassium salt of diethylene glycol monomethyl ether
% Decontamination at reaction time 10 sec [1, 3]: 67% | % Decontamination at reaction time 30 sec [1, 3]: 88% | % Decontamination at reaction time 1 min [1, 3]: 91% | % Decontamination at reaction time 3 min [1, 3]: 93% | % Decontamination at reaction time 10 sec [1, 4]: 100% | % Decontamination at reaction time 30 sec [1, 4]: 100% | % Decontamination at reaction time 1 min [1, 4]: 100% | % Decontamination at reaction time 30 sec [1, 5]: 78% | % Decontamination at reaction time 1 min [1, 5]: 82% | % Decontamination at reaction time 3 min [1, 5]: 77% | % Decontamination at reaction time 5 min [1, 5]: 80% | % Decontamination at reaction time 10 sec [1, 6]: 100% | % Decontamination at reaction time 30 sec [1, 6]: 100% | % Decontamination at reaction time 10 sec [1, 7]: 75% | % Decontamination at reaction time 1 min [1, 7]: 91% | % Decontamination at reaction time 3 min [1, 7]: 96% | % Decontamination at reaction time 10 sec [1, 8]: 99% | % Decontamination at reaction time 30 sec [1, 8]: 100% | % Decontamination at reaction time 1 min [1, 8]: 100% | % Decontamination at reaction time 10 sec [1, 9]: 85% | % Decontamination at reaction time 30 sec [1, 9]: 92% | % Decontamination at reaction time 1 min [1, 9]: 82% | % Decontamination at reaction time 3 min [1, 9]: 89% | % Decontamination at reaction time 5 min [1, 9]: 94% | % Decontamination at reaction time 10 sec [1, 10]: 87% | % Decontamination at reaction time 30 sec [1, 10]: 99% | % Decontamination at reaction time 1 min [1, 10]: 100% | % Decontamination at reaction time 3 min [1, 10]: 100% | % Decontamination at reaction time 5 min [1, 10]: 100% | % Decontamination at reaction time 30 sec [1, 11]: 67% | % Decontamination at reaction time 1 min [1, 11]: 80% | % Decontamination at reaction time 5 min [1, 11]: 87% | % Decontamination at reaction time 10 sec [1, 12]: 100% | % Decontamination at reaction time 30 sec [1, 12]: 100% | % Decontamination at reaction time 10 sec [1, 13]: 98% | % Decontamination at reaction time 30 sec [1, 13]: 100% | % Decontamination at reaction time 1 min [1, 13]: 100% | % Decontamination at reaction time 10 sec [1, 14]: 100% | % Decontamination at reaction time 30 sec [1, 14]: 100% | % Decontamination at reaction time 3 min [1, 14]: 100%

Potassium 2,3 butanedione monoximate
effect on the survival of guinea pigs decontaminated after exposure to GD [2]: negative effect
